Biological target: PIM-2 (Homo sapiens, UniProt Q9P1W9)
Assay: PIM-2 assay, IC50 determination (luciferase-luciferin ATP depletion, 10-point dose response)
Type: biochemical
Details: 10 nM PIM-2, 1 μM ATP, 50 μM peptide substrate, 15 minutes at room temperature

Sequences of proteins named here, by UniProt entry; tags and fusion partners are left off. A change or cut given only in a name is not applied to a line headed by its entry.
UniProt Q9P1W9: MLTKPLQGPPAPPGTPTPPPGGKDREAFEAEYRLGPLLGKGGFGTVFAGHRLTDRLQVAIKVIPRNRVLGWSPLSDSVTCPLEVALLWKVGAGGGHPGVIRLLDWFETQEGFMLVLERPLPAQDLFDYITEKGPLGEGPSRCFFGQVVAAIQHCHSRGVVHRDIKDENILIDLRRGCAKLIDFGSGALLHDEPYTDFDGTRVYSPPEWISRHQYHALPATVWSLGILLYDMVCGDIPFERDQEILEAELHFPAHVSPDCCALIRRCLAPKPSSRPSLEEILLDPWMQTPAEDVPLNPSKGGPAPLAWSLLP

IC50 | Compound
12 nM | N[C@H]1CC[C@H](Nc2cncc(-c3cccc(/C=C/C(=O)O)c3)n2)CC1 [compound 1, (E)-3-{3-[6-(4-Amino-cyclohexylamino)-pyrazin-2-yl]-phenyl}-acrylic acid]
19 nM | N[C@H]1CC[C@@H](Nc2cncc(-c3cccc(/C=C/C(=O)O)c3)n2)CC1 [compound 2, (E)-3-{3-[6-(4-Amino-cyclohexylamino)-pyrazin-2-yl]-phenyl}-acrylic acid]
